Earlier results, collected in patent US20040204482A1, “Extended release oral dosage form” (priority 2001, published 2004).

Settings: at 25° C.

## NC(=O)c1ccc(F)c2c1C[C@@H](N(C1CCC1)C1CCC1)CO2.O.O=C(O)C(O)C(O)C(=O)O [(R)-3-N,N-dicyclobutylamino-8-fluoro-3,4-dihydro-2H-1-benzopyran-5-carboxamide hydrogen (2R,3R)-tartrate monohydrate]
  water solubility: 70 mg/mL
